Each structure is given as a SMILES string. Bounds are passed on as bounds.

Chains of the proteins cited; added tags and fusions are not shown.
UniProt Q99MT6, whole entry: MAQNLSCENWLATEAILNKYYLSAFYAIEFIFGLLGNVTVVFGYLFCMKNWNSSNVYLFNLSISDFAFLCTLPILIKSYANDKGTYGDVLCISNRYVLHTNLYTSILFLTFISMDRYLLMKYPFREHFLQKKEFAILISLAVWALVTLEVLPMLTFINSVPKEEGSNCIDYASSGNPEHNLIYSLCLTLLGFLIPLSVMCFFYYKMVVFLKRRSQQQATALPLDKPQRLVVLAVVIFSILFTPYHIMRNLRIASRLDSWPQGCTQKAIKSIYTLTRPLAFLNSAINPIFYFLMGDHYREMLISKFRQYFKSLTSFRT
UniProt Q9BXA5, whole entry: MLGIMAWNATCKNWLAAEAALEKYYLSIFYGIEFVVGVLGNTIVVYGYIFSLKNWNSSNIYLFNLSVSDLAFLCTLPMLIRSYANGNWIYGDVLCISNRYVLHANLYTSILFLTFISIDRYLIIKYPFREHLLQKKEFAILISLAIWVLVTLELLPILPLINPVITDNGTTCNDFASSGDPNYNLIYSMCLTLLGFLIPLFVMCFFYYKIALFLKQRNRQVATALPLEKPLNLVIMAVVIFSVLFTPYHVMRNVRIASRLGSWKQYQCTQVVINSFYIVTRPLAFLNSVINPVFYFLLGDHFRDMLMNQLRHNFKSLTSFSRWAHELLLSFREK

The target in one data set is mSUCNR1 (Mus musculus, UniProt Q99MT6). In words: IP3 turnover assay in mSUCNR1 transfected HEK-293 cells. Format: cell-based.
The conditions of data set [1]: 2 hours, 37 °C.
The conditions of data set [2]: after 70 hours in 10 mM PBS7.4, 37 °C.
The test system of a further data set is SUCNR1. In words: Active/inactive grouping by EC50 threshold (ALiBERO training set, Table S1). It counts as cell-based. The following applies: active (1) / inactive (0), EC50 threshold of 10 µM.
For data set [3] the following is noted: 1 hour, 1 μM, 0.5 mg/mL microsomes.
The conditions of data set [4]: 10 mM PBS7.4, 25 °C, 24 h.
A further data set concerns the target hSUCNR1 (Homo sapiens, UniProt Q9BXA5). The experiment in a line: IP3 turnover assay in hSUCNR1 transfected HEK-293 cells. It counts as cell-based.
Where [5] appears, read: dose-response curves of induction of IP3 turnover in SUCNR1 transfected HEK cells (N = 3).
Setting [6] is: efficacy relative to succinate (100%), IP3 turnover, HEK cells (N = 3).

Take `O=C(O)C[C@H](NC(=O)c1ccc(-c2ccc(F)cc2)o1)C(=O)O`: the “mSUCNR1 pEC50” value at mSUCNR1 (setting [5]) stood at 6.46 ± 0.06. In addition, the “mSUCNR1 efficacy, %” value at mSUCNR1 (setting [6]) is 79.3 ± 1.6%. For the same molecule, the “stability in FaSSGF” value in data set [1] (simulated gastrointestinal fluid FaSSGF) is on record as “stable”. Besides, in data set [1] (simulated gastrointestinal fluid FaSSIF), the “stability in FaSSIF” value is listed as “stable”. Also, the “stability in FeSSIF” value in data set [1] (simulated gastrointestinal fluid FeSSIF) was “stable”. This molecule also showed a chemical stability in data set [2] greater than 98%. Moreover, in the data set on SUCNR1, the Active is recorded as 1 (active (1)). In addition, the “stability in mouse liver microsomes” value in data set [3] is reported as “stable”. In data set [4], this molecule showed a kinetic solubility greater than 200 µM. Further, the “hSUCNR1 pEC50” value on hSUCNR1 (setting [5]) stood at 5.75 ± 0.08. Moreover, at hSUCNR1 (dose-response curves on hSUCNR1 and mSUCNR1 compared with succinate), the type of agonism result was “partial agonists”. Also, the “hSUCNR1 efficacy, %” value on hSUCNR1 (setting [6]) worked out at 72.8 ± 2.6%.

Values taken from article PMC6030209, “Structure-Activity Investigations and Optimisations of Non-metabolite Agonists for the Succinate Receptor 1” (Scientific Reports, 2018).
